Measurements taken from article PMC7700175, “(E)-1-(Furan-2-yl)-(substituted phenyl)prop-2-en-1-one Derivatives as Tyrosinase Inhibitors and Melanogenesis Inhibition: An In Vitro and In Silico Study” (Molecules, 2020).

Sequences of proteins named here, by UniProt entry; tags and fusion partners are left off. Residues count along the entry.
UniProt P11344, 19-533: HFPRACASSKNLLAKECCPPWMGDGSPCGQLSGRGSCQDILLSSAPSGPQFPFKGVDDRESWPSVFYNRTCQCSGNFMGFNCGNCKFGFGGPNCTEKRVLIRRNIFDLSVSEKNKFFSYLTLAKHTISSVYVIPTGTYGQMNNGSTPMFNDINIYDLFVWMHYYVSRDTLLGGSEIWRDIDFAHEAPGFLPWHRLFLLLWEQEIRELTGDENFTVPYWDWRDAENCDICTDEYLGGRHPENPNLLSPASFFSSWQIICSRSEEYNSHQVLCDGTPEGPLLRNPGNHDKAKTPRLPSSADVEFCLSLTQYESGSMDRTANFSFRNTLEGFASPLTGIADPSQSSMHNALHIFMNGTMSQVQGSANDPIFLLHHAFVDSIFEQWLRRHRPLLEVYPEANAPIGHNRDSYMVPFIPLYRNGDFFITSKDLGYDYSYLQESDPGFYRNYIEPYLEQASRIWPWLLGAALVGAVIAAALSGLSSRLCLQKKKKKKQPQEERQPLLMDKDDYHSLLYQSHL
UniProt C7FF04, 1-392: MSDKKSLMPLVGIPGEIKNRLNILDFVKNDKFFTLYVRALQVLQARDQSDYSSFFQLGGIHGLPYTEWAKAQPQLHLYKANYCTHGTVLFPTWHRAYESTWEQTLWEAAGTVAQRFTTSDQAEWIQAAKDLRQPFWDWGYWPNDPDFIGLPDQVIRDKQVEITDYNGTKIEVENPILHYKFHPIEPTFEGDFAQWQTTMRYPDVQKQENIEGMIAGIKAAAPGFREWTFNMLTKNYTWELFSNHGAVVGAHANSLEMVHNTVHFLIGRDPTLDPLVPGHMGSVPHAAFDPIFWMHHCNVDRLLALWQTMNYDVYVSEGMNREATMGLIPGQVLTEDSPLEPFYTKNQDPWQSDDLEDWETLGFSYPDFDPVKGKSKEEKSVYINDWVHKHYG

Key:
[1] = target: cellular tyrosinase in B16F10 cells (Mus musculus, UniProt P11344)
[2] = target: T1, Mushroom tyrosinase (EC 1.14.18.1) (Agaricus bisporus, UniProt C7FF04); assay: Mushroom tyrosinase inhibition assay (L-tyrosine or L-DOPA as substrate); assay type: biochemical; details: mean ± SEM of triplicate
T1 construct: purchased Sigma-Aldrich
Description: In order to evaluate the inhibitory effects of synthesized furan chalcone derivatives on the enzyme activity, tested compounds were subjected to a mushroom tyrosinase inhibition assay with monophenolase (L-tyrosine) or diphenolase (L-3,4-dihydroxyphenyl-alanine; L-DOPA) as the substrates.
Mushroom tyrosinase inhibition was determined following our previously reported methods. All experiments were done in triplicate. […] The measurement was completed in triplicate for each concentration and averaged. The IC50 values were determined by interpolation of the dose-inhibition % curves.

[3] = system: tyrosinase expression in B16F10 cells

SMILES: O=C(/C=C/c1ccc(O)cc1O)c1ccco1 [Compound 8, (E)-3-(2,4-Dihydroxyphenyl)-1-(furan-2-yl)prop-2-en-1-one]
- cellular tyrosinase activity [1]: decreased
- IC50 ([2]; IC50 (μM) a, L-tyrosine as substrate (monophenolase)): 0.0433 ± 0.0016 µM
- IC50 ([2]; IC50 (μM) b, L-DOPA as substrate (diphenolase)): 0.28 ± 0.01 µM
- expression of tyrosinase (protein level) [3]: decreased
- extracellular melanin content (B16F10 cells): decreased
- intracellular melanin content (B16F10 cells): decreased
